The test system of one data set is UACC-62. As to the kind of experiment: NCI screen cytotoxicity, melanoma UACC-62. The conditions noted are these: read-out: Cytotoxicity (GI50 in μM) melanoma UACC-62; 50% growth inhibition.
For the next data set, the system named is HOP-62. Briefly: NCI screen cytotoxicity, lung HOP-62. The conditions noted are these: read-out: Cytotoxicity (GI50 in μM) lung HOP-62; 50% growth inhibition.
For data set [1], the target named is T1, Tdp1 (Homo sapiens (Human), UniProt Q9NUW8). Briefly: Gel-based assay measuring the inhibition of recombinant Tdp1. Format: biochemical.
Data set [2] deals with T1, Tdp1. Briefly: Surface plasmon resonance binding to immobilized Tdp1. The conditions noted are these: SPR, 1:1 binding model. Here is the method:
The binding of the inhibitor to the surface-bound Tdp1 induces an increase in resonance units from the initial baseline until a steady-state phase of this interaction is achieved as depicted by a plateau. The decrease in resonance units corresponds to the dissociation or reversibility of the interaction. […] Steroid 7, which binds Tdp1 directly, is also competitive with the DNA substrate for the Tdp1 active site.
Surface Plasmon Resonance Analysis.
Binding experiments were performed on a Biacore T100 instrument (GE, Piscataway N.J.). […] Coupling reagents [N-ethyl-N′-(3-dimethylaminopropyl)-carbodiimide] (EDC), N-hydroxysuccinimide (NHS) and ethanolamine were purchased from GE Heathcare, (Piscataway N.J.). Neutravidin was obtained from Pierce. In order to protect the amine groups within the active site from modification, Tdp1 was bound with a 14-base oligonucleotide before coupling to the surface.
Binding experiments were performed as recently described.
(Surface plasmon resonance follows binding to a sensor surface in real time, without labels.)

Sequences of proteins named here, by UniProt entry; tags and fusion partners are left off.
UniProt Q9NUW8, whole entry: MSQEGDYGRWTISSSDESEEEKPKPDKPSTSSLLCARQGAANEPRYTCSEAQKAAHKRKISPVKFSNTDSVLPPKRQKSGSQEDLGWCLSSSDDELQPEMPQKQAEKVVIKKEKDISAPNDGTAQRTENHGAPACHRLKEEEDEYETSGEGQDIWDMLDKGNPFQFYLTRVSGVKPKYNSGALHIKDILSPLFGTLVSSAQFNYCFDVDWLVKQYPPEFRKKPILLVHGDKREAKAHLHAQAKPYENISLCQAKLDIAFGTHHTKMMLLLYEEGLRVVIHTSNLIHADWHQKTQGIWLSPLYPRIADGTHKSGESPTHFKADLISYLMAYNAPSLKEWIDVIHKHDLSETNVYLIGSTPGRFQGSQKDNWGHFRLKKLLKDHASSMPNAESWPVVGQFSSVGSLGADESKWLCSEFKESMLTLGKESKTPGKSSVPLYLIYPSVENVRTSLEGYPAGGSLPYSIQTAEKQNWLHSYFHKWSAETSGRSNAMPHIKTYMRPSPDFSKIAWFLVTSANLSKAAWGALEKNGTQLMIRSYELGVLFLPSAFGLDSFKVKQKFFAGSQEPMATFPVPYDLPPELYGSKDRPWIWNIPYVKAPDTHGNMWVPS

For orientation: GI50 means the concentration at which growth is held to half of that of the control. What is called IC50 is the midpoint of a concentration-inhibition curve. In general, Kd refers to the free concentration of one partner at which half of the binding sites on the other are occupied at equilibrium, for simple one-to-one binding.

Values joined by “and” are separate entries in the source; they are usually repeats but may differ in a detail not shown here. Equal entries are not always repeated. Where two headings read alike, the source gives them in different places.

On to `COc1ccc2c(c1)-c1c(c3ccc([N+](=O)[O-])cc3c(=O)n1CCCN)C2=O.Cl` [Compound 51 of (B), 6-(3-Aminopropyl)-5,6-dihydro-8-methoxy-3-nitro-5,11-dioxo-11H-indeno[1,2-c]isoquinoline Hydrochloride], for which the GI50 in the data set on UACC-62 and in the data set with HOP-62 was 0.14 µM in each case.
“(6-Methyl-5,11-dioxo-6,11-dihydro-5H-indeno[1,2-c]isoquinolin-3-yl)-carbamic Acid [Compound 14 of (B)]”: the IC50 on Tdp1 [1] (determined by duplicate, read-out: Tdp1 (semiquantitative IC50 scale)) was in the range of 37 to 111 µM. Also, the IC50 at Tdp1 [1] (determined by quadruplicate, read-out: Tdp1 (μM), IC50 values of Tdp1 active compounds) turned out to be 61 ± 7 µM. Further, at Tdp1 [1] (recombinant (rec.) Tdp1, gel-based assay, listed as 14, read-out: Tdp1 IC50), the IC50 is 61.7 µM and 61 µM. In addition, at Tdp1 [2], the Kd was 31 µM, the ka is 7.7e4 l/Ms and the kd turned out to be 0.24 L/s.

The values are drawn from US9402842B2, “Synthesis and use of dual tyrosyl-DNA phosphodiesterase I (Tdp1)—topoisomerase I (Top1) inhibitors” (Purdue Research Foundation, priority 2012, dated 2016).
